# Curated experimental data: water solubility values

Data: OPERA 2.9 data sets, kmansouri/OPERA on GitHub.

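The OPERA project collected these measurements from public sources as training and test data for property models. The files give a single number for a compound and property, which may rest on several reports. Conditions of the individual experiments are not part of the data. A value may pool stereoisomers or salt forms, and the file does not say which form was measured. Some entries may be limits or estimates that an upstream database listed as plain numbers.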

Water solubility is log10 of mol/L, nominally at 25 °C; higher is more soluble.

| log solubility (log10 mol/L) | compound |
|---|---|
| -4.305 | CN1CCC(CN2c3ccccc3Sc3ccccc32)C1 (stereo unspecified) |
| -6.813 | CCn1c2ccccc2c2ccccc21 |
| -3.05 | CCCCNC(=O)NS(=O)(=O)c1ccccc1 |
| -2.902 | Nc1cnc2c(N)nc(N)nc2n1 |
| -3.055 | NC(=O)C(=O)N(CCO)N=Cc1ccc([N+](=O)[O-])o1 |
| -5.77 | O=C1c2ccccc2C(=O)c2c(NCCO)ccc(NCCO)c21 |
| -3.429 | CCCCCCCCCCCCCCCCCCOC(=O)c1cccnc1 |
| -3.713 | O=S1(=O)N=C(Nc2ccccc2)c2ccccc21 |
| -0.77 | CC[C@@H]1CCN[C@H](C(=O)N[C@@H]([C@H]2O[C@H](SC)[C@H](O)[C@@H](O)[C@H]2O)[C@H](C)Cl)C1 |
| -4.27 | Nc1ccc(Cl)cc1C(F)(F)F |
| -2.52 | OC(Cc1ccccc1)c1ccccc1 (stereo unspecified) |
| -3.98 | O=C(N/N=C/C=C/c1ccc([N+](=O)[O-])o1)c1ccncc1 |
| -4.65 | O=C([O-])CCC/C=C\C[C@@H]1[C@@H](/C=C/[C@@H](O)COc2cccc(Cl)c2)[C@H](O)C[C@@H]1O.[Na+] |
| -2.738 | OCCN(CCO)c1nc(N2CCCCC2)c2nc(N(CCO)CCO)nc(N3CCCCC3)c2n1 |
| -2.409 | CCOC(=O)/C(=C\c1ccc(OC)c(OC)c1)N=CO |
| -7.865 | CC1CCC2CC1([S-])C2(C)C.[Au+] (stereo unspecified) |
| -2.907 | C=C(O)[C@@H](N)CSCCCCCSC[C@H](N)C(=C)O |
| -2.682 | CC(C)(C)C(=O)OCn1ncc2c(O)ncnc21 |
| 0.017 | CCCn1cnc2c1c(=O)n(C)c(=O)n2C |
| -1.073 | CC(CCO)CCC=O (stereo unspecified) |
| -7.937 | CCCCCCCC/C=C\CCCCCCCC(=O)OCC(O)COC(=O)[C@@H]1CCC(=O)N1 (stereo partly drawn) |
| -3.836 | CC(=O)c1ccc2c(c1)N(CCCN1CCN(CCO)CC1)c1ccccc1S2 |
| -3 | Cc1cc(NC(N)=O)ccc1Br |
| -4.067 | CC(=O)O[C@@H]1C[C@H](C)CC[C@H]1C(C)C (racemic) |
| -3.652 | O=c1c(-c2ccc(O)c(O)c2)coc2cc(O[C@@H]3O[C@H](CO)[C@@H](O)C(O)[C@H]3O)cc(O)c12 (some centres not stated) |
| -7.62 | Clc1cc(Cl)c(Oc2ccc(Cl)c(Cl)c2)c(Cl)c1 |
| -2.826 | O=[N+]([O-])c1ccc(N/N=C\CCCO)c([N+](=O)[O-])c1 |
| 0.586 | CC(=O)N[C@@H](CC(=O)O)C(=O)O |
| -4.077 | CC12CCC(c3cnc(NS(=O)(=O)c4ccc(N)cc4)nc31)C2(C)C (stereo unspecified) |
| -9.54 | Clc1cc(Oc2cc(Cl)c(Cl)c(Cl)c2Cl)cc(Cl)c1Cl |
| -4.346 | C[C@H](CCC(=O)O)[C@H]1CC[C@H]2[C@@H]3[C@H](O)[C@H](O)[C@@H]4C[C@H](O)CC[C@]4(C)[C@H]3CC[C@]12C |

Excerpt, the opening 3 entries:

compound	log solubility (log10 mol/L)
CN1CCC(CN2c3ccccc3Sc3ccccc32)C1 (stereo unspecified)	-4.305
CCn1c2ccccc2c2ccccc21	-6.813
CCCCNC(=O)NS(=O)(=O)c1ccccc1	-3.05